Laboratory results published in US9260454B2, “Isothiazolopyridine-2-carboxamides and their use as pharmaceuticals” (Sanofi, priority 2011, dated 2016).

Protein sequences, listed by entry. Tags and fused reporters are not part of them.
UniProt P21980, whole entry: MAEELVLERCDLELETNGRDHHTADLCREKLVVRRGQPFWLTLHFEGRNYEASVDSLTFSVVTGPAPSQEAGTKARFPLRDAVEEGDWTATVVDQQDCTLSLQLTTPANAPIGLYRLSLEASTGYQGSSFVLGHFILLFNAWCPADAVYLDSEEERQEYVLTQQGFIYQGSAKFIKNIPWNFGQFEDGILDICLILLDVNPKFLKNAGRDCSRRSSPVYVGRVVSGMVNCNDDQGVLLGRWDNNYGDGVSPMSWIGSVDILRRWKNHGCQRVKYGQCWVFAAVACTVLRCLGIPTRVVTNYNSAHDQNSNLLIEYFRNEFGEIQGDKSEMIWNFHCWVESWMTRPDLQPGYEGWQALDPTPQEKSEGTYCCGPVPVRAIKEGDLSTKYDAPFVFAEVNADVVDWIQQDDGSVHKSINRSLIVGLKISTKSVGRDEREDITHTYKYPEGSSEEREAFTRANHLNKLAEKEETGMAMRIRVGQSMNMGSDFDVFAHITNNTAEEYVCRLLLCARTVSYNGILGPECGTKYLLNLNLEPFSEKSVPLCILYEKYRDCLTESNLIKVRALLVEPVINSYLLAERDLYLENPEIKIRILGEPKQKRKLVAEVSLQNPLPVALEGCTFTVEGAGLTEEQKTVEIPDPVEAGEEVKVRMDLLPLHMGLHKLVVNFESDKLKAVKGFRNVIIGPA

Each compound was assayed against recombinant human TGM2 (Homo sapiens (Human), UniProt P21980) (assay: Assay for quantification of TGM2 transglutaminase inhibitory activity (fluorescence, H-Abz-APE(CAD-DNP)QEA-OH substrate)). Settings: read-out: IC50 values for inhibition of TGM2; recombinant human TGM2 25 μg/ml; substrate 50 μM, glycine methyl ester 5 mM; 15 min preincubation at room temperature; pH 7.5.
Method: a) Assay Method for the Quantification of TGM2 Transglutaminase Inhibitory Activity
The activity of the compounds for inhibition of TGM2 was determined with recombinant human TGM2 (Zedira GmbH, Darmstadt, Germany, Product Nr. T002) and the peptidic compound H-Abz-APE(CAD-DNP)QEA-OH as substrate (Zedira GmbH, Darmstadt, Germany, Product Nr. A102; CAD-DNP is N^ω-2,4-dinitrophenyl-cadaverine, i.e. the carboxylic acid group in the side chain of the respective glutamyl moiety is amidated with the primary amino group of N-(2,4-dinitrophenyl)pentane-1,5-diamine; cf. also K. Oertel et al., Anal. Biochem. 2007, 367: 152-158). For this purpose, 2 μl of a solution of different concentrations of the test compound in dimethyl sulfoxide was added to 28 μl of buffer (50 mM TRIS, 100 mM NaCl, 10 mM CaCl2, pH 7.5) and 10 μl of a TGM2 solution to give a TMG2 test concentration of 25 μg/ml, and the mixture incubated for 15 minutes at room temperature in a 96 half-well microtiter plate. The enzyme reaction was started by the addition of 10 μl of substrate solution containing H-Abz-APE(CAD-DNP)QEA-OH and glycine methyl ester hydrochloride in buffer to give test concentrations of H-Abz-APE(CAD-DNP)QEA-OH of 50 μM and of glycine methyl ester hydrochloride of 5 mM. The time course of the reaction was monitored with excitation at 318 nm and measurement at emission wavelength 418 nm in a microtiter plate reader (SpectraMax M5, Molecular Devices) over 15 minutes. Rates were calculated from the linear part of the curve (generally between 5 and 10 minutes). IC50 values were calculated from the means (duplicates) of a dilution series of the compound, using the software Softmax Pro (Version 4.8, Molecular Devices).

Row | IC50 [nM] | SMILES
1 | 200 | NS(=O)(=O)N1CCN(C(=O)n2sc3ncccc3c2=O)CC1
2 | 250 | CS(=O)(=O)N1CCN(C(=O)n2sc3ncccc3c2=O)CC1
3 | 800 | O=C(NC[C@H]1OC(O)[C@H](O)[C@@H](O)[C@H]1O)n1sc2ncccc2c1=O (stereo partly drawn)
